From ChEMBL document CHEMBL1148771, “Design and synthesis of HIV-1 protease inhibitors incorporating oxazolidinones as P2/P2' ligands in pseudosymmetric dipeptide isosteres” (J Med Chem, 2007)

Molecular target: Protease (Human immunodeficiency virus 1, UniProt Q9YQ12)
Assay: Inhibition of Wild type HIV1 Protease by FRET based assay

Row | SMILES | Ki [nM]
1 | CC(=O)N[C@H](C(=O)N[C@@H](Cc1ccccc1)C[C@H](O)[C@H](Cc1ccccc1)NC(=O)[C@H]1CN(c2ccccc2)C(=O)O1)C(C)C | 131
2 | CC(C)[C@@H](C(=O)N[C@@H](Cc1ccccc1)C[C@H](O)[C@H](Cc1ccccc1)NC(=O)[C@@H]1CN(c2ccccc2)C(=O)O1)N1CCCNC1=O | 2.04
3 | CC(=O)N[C@H](C(=O)N[C@@H](Cc1ccccc1)C[C@H](O)[C@H](Cc1ccccc1)NC(=O)[C@@H]1CN(c2ccccc2)C(=O)O1)C(C)C | 0.85
